Measurements as given in patent US20110224208A1, “NOVEL INHIBITORS OF FLAVIVIRUS REPLICATION” (KATHOLIEKE UNIVERSITEIT LEUVEN, K.U. LEUVEN R&D, priority 2008, published 2011).

Test: Proliferation of exponentially growing Huh-5-2 cells (MTS method)
Details: human, CC50, concentration required to inhibit the proliferation of exponentially growing Huh-5-2 cells by 50%

Structure (SMILES) | CC50 at 72 h (Table 2) [µg/mL] | CC50 at 72 h (Table 4) [µg/mL]
COCCN1C(=O)c2ccccc2C(C(=O)Nc2cccc(OC)c2)C1c1ccnn1C (stereo not drawn) [C105, 2-(2-methoxyethyl)-N-(3-methoxyphenyl)-3-(1-methyl-1H-pyrazol-5-yl)-1-oxo-1,2,3,4-tetrahydroisoquinoline-4-carboxamide] | 84.5 (≈ 194 µM) | –
COCCN1C(=O)c2ccccc2C(C(=O)Nc2cccc(OC)c2)C1c1cccn1C (stereo not drawn) [C106, 2-(2-methoxyethyl)-N-(3-methoxyphenyl)-3-(1-methyl-1H-pyrrol-2-yl)-1-oxo-1,2,3,4-tetrahydroisoquinoline-4-carboxamide] | 84.8 (≈ 196 µM) | –
COCCN1C(=O)c2ccccc2C(C(=O)Nc2cc(C)nn2C)C1c1cccs1 (stereo not drawn) [C109, N-(1,3-dimethyl-1H-pyrazol-5-yl)-2-(2-methoxyethyl)-1-oxo-3-(thiophen-2-yl)-1,2,3,4-tetrahydroisoquinoline-4-carboxamide] | 83.5 (≈ 197 µM) | –
COCCN1C(=O)c2ccccc2C(C(=O)Nc2cccc(OC(F)(F)F)c2)C1c1cccs1 (stereo not drawn) [C112, 2-(2-methoxyethyl)-1-oxo-3-(thiophen-2-yl)-N-(3-(trifluoromethoxy)phenyl)-1,2,3,4-tetrahydroisoquinoline-4-carboxamide] | 75.7 (≈ 154 µM) | –
COCCN1C(=O)c2ccccc2C(C(=O)Nc2ccc(OC(F)(F)F)cc2)C1c1cccs1 (stereo not drawn) [C113, 2-(2-methoxyethyl)-1-oxo-3-(thiophen-2-yl)-N-(4-(trifluoromethoxy)phenyl)-1,2,3,4-tetrahydroisoquinoline-4-carboxamide] | 66.9 (≈ 136 µM) | –
COCCN1C(=O)c2ccccc2C(C(=O)Nc2ccc(C(=O)OC)c(OC)c2)C1c1cccs1 (stereo not drawn) [C114, methyl 2-methoxy-4-(2-(2-methoxyethyl)-1-oxo-3-(thiophen-2-yl)-1,2,3,4-tetrahydroisoquinoline-4-carboxamido)benzoate] | 58.7 (≈ 119 µM) | –
COCCN1C(=O)c2ccccc2C(C(=O)Nc2cccc(-n3cccc3)c2)C1c1cccs1 (stereo not drawn) [C115, N-(3-(1H-pyrrol-1-yl)phenyl)-2-(2-methoxyethyl)-1-oxo-3-(thiophen-2-yl)-1,2,3,4-tetrahydroisoquinoline-4-carboxamide] | 76.6 (≈ 162 µM) | –
COCCN1C(=O)c2ccccc2C(C(=O)Nc2ccc(N3CCOCC3)cc2)C1c1cccs1 (stereo not drawn) [C121, 2-(2-methoxyethyl)-N-(4-morpholinophenyl)-1-oxo-3-(thiophen-2-yl)-1,2,3,4-tetrahydroisoquinoline-4-carboxamide] | 81.2 (≈ 165 µM) | –
COCCN1C(=O)c2c(ccc(OC)c2F)C(C(=O)Nc2cccc(OC)c2)C1c1cccs1 (stereo not drawn) [C128, 8-fluoro-7-methoxy-2-(2-methoxyethyl)-N-(3-methoxyphenyl)-1-oxo-3-(thiophen-2-yl)-1,2,3,4-tetrahydroisoquinoline-4-carboxamide] | 52.7 (≈ 109 µM) | > 50
COCCN1C(=O)c2ccccc2C(C(=O)Nc2ccc(NC(C)=O)cc2)C1c1cccs1 (stereo not drawn) [C129, N-(4-acetamidophenyl)-2-(2-methoxyethyl)-1-oxo-3-(thiophen-2-yl)-1,2,3,4-tetrahydroisoquinoline-4-carboxamide] | 97 (≈ 209 µM) | –
COCCN1C(=O)c2ccccc2C(C(=O)Nc2ccc3[nH]ncc3c2)C1c1cccs1 (stereo not drawn) [C132, N-(1H-indazol-5-yl)-2-(2-methoxyethyl)-1-oxo-3-(thiophen-2-yl)-1,2,3,4-tetrahydroisoquinoline-4-carboxamide] | 81.3 (≈ 182 µM) | –
COCCN1C(=O)c2ccccc2C(C(=O)Nc2cc(C(C)(C)C)on2)C1c1cccs1 (stereo not drawn) [C142, N-(5-tert-butylisoxazol-3-yl)-2-(2-methoxyethyl)-1-oxo-3-(thiophen-2-yl)-1,2,3,4-tetrahydroisoquinoline-4-carboxamide] | 8.95 (≈ 19.7 µM) | > 30
COCCN1C(=O)c2ccccc2C(C(=O)Nc2cccc(OC)c2)C1C#N (stereo not drawn) [C143, 3-cyano-2-(2-methoxyethyl)-N-(3-methoxyphenyl)-1-oxo-1,2,3,4-tetrahydroisoquinoline-4-carboxamide] | 83.2 (≈ 219 µM) | –
COCCN1C(=O)c2ccccc2C(C(=O)Nc2ccc(Cl)cc2N)C1c1cccs1 (stereo not drawn) [C144, N-(2-amino-4-chlorophenyl)-2-(2-methoxyethyl)-1-oxo-3-(thiophen-2-yl)-1,2,3,4-tetrahydroisoquinoline-4-carboxamide] | 45.2 (≈ 99.2 µM) | –
COCCN1C(=O)c2cc(N)ccc2C(C(=O)Nc2cccc(OC)c2)C1c1cccs1 (stereo not drawn) [C147, 7-amino-2-(2-methoxyethyl)-N-(3-methoxyphenyl)-1-oxo-3-(thiophen-2-yl)-1,2,3,4-tetrahydroisoquinoline-4-carboxamide] | 77.8 (≈ 172 µM) | –
COCCN1C(=O)c2ccccc2C(C(=O)Nc2ccc(-n3cccc3)cc2)C1c1ccc(Cl)s1 (stereo not drawn) [C153, N-(4-(1H-pyrrol-1-yl)phenyl)-3-(5-chlorothiophen-2-yl)-2-(2-methoxyethyl)-1-oxo-1,2,3,4-tetrahydroisoquinoline-4-carboxamide] | 60.9 (≈ 120 µM) | > 50
COCCN1C(=O)c2ccccc2C(C(=O)Nc2nc(C)co2)C1c1cccs1 (stereo not drawn) [C154, 2-(2-methoxyethyl)-N-(4-methyloxazol-2-yl)-1-oxo-3-(thiophen-2-yl)-1,2,3,4-tetrahydroisoquinoline-4-carboxamide] | 53.4 (≈ 130 µM) | –

Structure (SMILES) | CC50 at 72 h (Table 2) [µg/mL] | CC50 at 72 h (Table 4) [µg/mL]
COCCN1C(=O)c2ccccc2C(C(=O)Nc2nc(C)c(C)s2)C1c1cccs1 (stereo not drawn) [C156, N-(4,5-dimethylthiazol-2-yl)-2-(2-methoxyethyl)-1-oxo-3-(thiophen-2-yl)-1,2,3,4-tetrahydroisoquinoline-4-carboxamide] | 86.3 (≈ 195 µM) | –
COCCN1C(=O)c2ccccc2C(C(=O)Nc2ccc(-c3csc(C)n3)cc2)C1c1cccs1 (stereo not drawn) [C157, 2-(2-methoxyethyl)-N-(4-(2-methylthiazol-4-yl)phenyl)-1-oxo-3-(thiophen-2-yl)-1,2,3,4-tetrahydroisoquinoline-4-carboxamide] | 71.3 (≈ 142 µM) | > 50
COCCN1C(=O)c2ccccc2C(C(=O)Nc2ccc(Oc3ccccc3)nc2)C1c1cccs1 (stereo not drawn) [C158, 2-(2-methoxyethyl)-1-oxo-N-(6-phenoxypyridin-3-yl)-3-(thiophen-2-yl)-1,2,3,4-tetrahydroisoquinoline-4-carboxamide] | 6.1 (≈ 12.2 µM) | –
COCCN1C(=O)c2ccccc2C(C(=O)Nc2ccncn2)C1c1cccs1 (stereo not drawn) [C162, 2-(2-methoxyethyl)-1-oxo-N-(pyrimidin-4-yl)-3-(thiophen-2-yl)-1,2,3,4-tetrahydroisoquinoline-4-carboxamide] | 80.3 (≈ 197 µM) | –
COCCN1C(=O)c2ccccc2C(C(=O)Nc2ccc(C(C)C)cc2)C1c1cccs1 (stereo not drawn) [C165, N-(4-isopropylphenyl)-2-(2-methoxyethyl)-1-oxo-3-(thiophen-2-yl)-1,2,3,4-tetrahydroisoquinoline-4-carboxamide] | 33.1 (≈ 73.8 µM) | –
COCCN1C(=O)c2ccccc2C(C(=O)Nc2ccc3nc(C)ccc3c2)C1c1cccs1 (stereo not drawn) [C168, 2-(2-methoxyethyl)-N-(2-methylquinolin-6-yl)-1-oxo-3-(thiophen-2-yl)-1,2,3,4-tetrahydroisoquinoline-4-carboxamide] | > 100 | > 50
COCCN1C(=O)c2ccccc2C(C(=O)Nc2ccc3nccnc3c2)C1c1cccs1 (stereo not drawn) [C171, 2-(2-methoxyethyl)-1-oxo-N-(quinoxalin-6-yl)-3-(thiophen-2-yl)-1,2,3,4-tetrahydroisoquinoline-4-carboxamide] | 72.6 (≈ 158 µM) | –
COCCN1C(=O)c2ccccc2C(C(=O)Nc2ccc(-c3ncccn3)cc2)C1c1cccs1 (stereo not drawn) [C175, 2-(2-methoxyethyl)-1-oxo-N-(4-(pyrimidin-2-yl)phenyl)-3-(thiophen-2-yl)-1,2,3,4-tetrahydroisoquinoline-4-carboxamide] | 10.4 (≈ 21.5 µM) | > 50
COCCN1C(=O)c2ccccc2C(C(=O)Nc2ccc3c(c2)CCN3C)C1c1cccs1 (stereo not drawn) [C176, 2-(2-methoxyethyl)-N-(1-methylindolin-5-yl)-1-oxo-3-(thiophen-2-yl)-1,2,3,4-tetrahydroisoquinoline-4-carboxamide] | 71.7 (≈ 155 µM) | –
COCCN1C(=O)c2ccccc2C(C(=O)Nc2ccc(-c3cnco3)cc2)C1c1cccs1 (stereo not drawn) [C178, 2-(2-methoxyethyl)-N-(4-(oxazol-5-yl)phenyl)-1-oxo-3-(thiophen-2-yl)-1,2,3,4-tetrahydroisoquinoline-4-carboxamide] | > 100 | > 50
COCCN1C(=O)c2ccccc2C(C(=O)Nc2cc(-c3ccccc3)[nH]n2)C1c1cccs1 (stereo not drawn) [C182, 2-(2-methoxyethyl)-1-oxo-N-(5-phenyl-1H-pyrazol-3-yl)-3-(thiophen-2-yl)-1,2,3,4-tetrahydroisoquinoline-4-carboxamide] | 36.2 (≈ 76.6 µM) | –
COCCN1C(=O)c2ccccc2C(C(=O)Nc2cc[nH]n2)C1c1cccs1 (stereo not drawn) [C184, 2-(2-methoxyethyl)-1-oxo-N-(1H-pyrazol-3-yl)-3-(thiophen-2-yl)-1,2,3,4-tetrahydroisoquinoline-4-carboxamide] | 85 (≈ 214 µM) | –
COCCN1C(=O)c2ccccc2C(C(=O)Nc2ccc(-c3noc(C)n3)cc2)C1c1cccs1 (stereo not drawn) [C187, 2-(2-methoxyethyl)-N-(4-(5-methyl-1,2,4-oxadiazol-3-yl)phenyl)-1-oxo-3-(thiophen-2-yl)-1,2,3,4-tetrahydroisoquinoline-4-carboxamide] | 12.4 (≈ 25.4 µM) | > 50
COCCN1C(=O)c2ccccc2C(C(=O)Nc2ccc(CN3CCOCC3)cc2)C1c1cccs1 (stereo not drawn) [C188, 2-(2-methoxyethyl)-N-(4-(morpholinomethyl)phenyl)-1-oxo-3-(thiophen-2-yl)-1,2,3,4-tetrahydroisoquinoline-4-carboxamide] | 45 (≈ 89.1 µM) | –
COCCN1C(=O)c2ccccc2C(C(=O)Nc2ccc(Oc3cncc(C)n3)cc2)C1c1cccs1 (stereo not drawn) [C191, 2-(2-methoxyethyl)-N-(4-(6-methylpyrazin-2-yloxy)phenyl)-1-oxo-3-(thiophen-2-yl)-1,2,3,4-tetrahydroisoquinoline-4-carboxamide] | 52.5 (≈ 102 µM) | > 50
COCCN1C(=O)c2ccccc2C(C(=O)Nc2nc(-c3ccccc3)ns2)C1c1cccs1 (stereo not drawn) [C194, 2-(2-methoxyethyl)-1-oxo-N-(3-phenyl-1,2,4-thiadiazol-5-yl)-3-(thiophen-2-yl)-1,2,3,4-tetrahydroisoquinoline-4-carboxamide] | 11.6 (≈ 23.6 µM) | –

≈ marks a conversion by molar mass, not a printed value.
